The numbers were not newly measured in patent US20080207643A1, “Composition for Treating Hyperlipaemia” (priority 2004, published 2008), which cites them from elsewhere.

pIC50: −log10 of the molar value.

This data set addresses T1, HMG-CoA reducase (Homo sapiens, UniProt P04035).
T1 sequence (P04035 1-888): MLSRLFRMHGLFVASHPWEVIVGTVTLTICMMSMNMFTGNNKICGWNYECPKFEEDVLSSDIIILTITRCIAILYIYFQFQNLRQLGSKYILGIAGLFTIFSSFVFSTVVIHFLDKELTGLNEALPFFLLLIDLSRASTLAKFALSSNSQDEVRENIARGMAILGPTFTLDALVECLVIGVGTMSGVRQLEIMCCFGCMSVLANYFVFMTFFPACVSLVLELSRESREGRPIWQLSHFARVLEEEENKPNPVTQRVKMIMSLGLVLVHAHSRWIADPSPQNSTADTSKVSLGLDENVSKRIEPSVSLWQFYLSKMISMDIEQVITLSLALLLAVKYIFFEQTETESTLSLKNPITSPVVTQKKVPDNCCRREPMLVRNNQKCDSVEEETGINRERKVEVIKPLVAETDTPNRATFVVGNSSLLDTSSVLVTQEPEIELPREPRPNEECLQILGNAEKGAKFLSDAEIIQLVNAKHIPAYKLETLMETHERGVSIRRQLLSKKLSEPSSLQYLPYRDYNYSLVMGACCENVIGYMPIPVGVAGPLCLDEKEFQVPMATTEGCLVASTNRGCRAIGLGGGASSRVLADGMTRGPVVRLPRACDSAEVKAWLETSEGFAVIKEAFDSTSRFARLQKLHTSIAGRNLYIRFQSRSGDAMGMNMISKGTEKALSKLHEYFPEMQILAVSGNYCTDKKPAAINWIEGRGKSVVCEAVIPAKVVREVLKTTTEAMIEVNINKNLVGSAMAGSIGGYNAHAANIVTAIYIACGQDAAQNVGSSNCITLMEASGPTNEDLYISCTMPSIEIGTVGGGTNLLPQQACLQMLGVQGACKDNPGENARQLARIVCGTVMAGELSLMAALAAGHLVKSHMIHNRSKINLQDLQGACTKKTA
To be noted: read-out: 50% Inhibition concentration (IC50) on HMG-CoA reducase; cited from earlier work.

Turning to `CC(C)c1c(C(=O)Nc2ccccc2)c(-c2ccccc2)c(-c2ccc(F)cc2)n1CC[C@@H](O)C[C@@H](O)CC(=O)O` [Atorvastatin calcium, calcium [R-(R′,R′)]2-(4-fluorophenyl)-βδ-dihydroxyl-5-(1-methylethyl)-3-phenyl-4-[aniline]carbonyl]-1-hydro-pyrrolyl-1-heptanoate trihydrate], the pIC50 was 7.14.
For `CC[C@H](C)C(=O)O[C@H]1C[C@H](O)C=C2C=C[C@H](C)[C@H](CC[C@@H](O)C[C@@H](O)CC(=O)O)[C@H]21` [pravastatin], the pIC50 was 5.58.
